# Data published in PubChem BioAssay AID1789 (The Scripps Research Institute Molecular Screening Center, 2009).
# Only a part is listed here, and it is no random draw. The source made the active and inactive calls.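 The calls were made as follows: active = inhibition above the screen-wide mean plus 3 SD, computed separately per campaign (cut at about 16% in these data); inactive = the rest.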
# System: Heat shock protein HSP 90 (rabbit reticulocyte lysate; luciferase refolding)
# Assay: inhibitors of HSP90 chaperone activity – cell lysate, luminescence, primary screen (AID 1789);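 also: 0% = DMSO wells and 100% = 60 µM geldanamycin wells; inhibitors lower the luminescence because luciferase stays unfolded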
# Conditions: 3 h, at 5.6 µM, stronger effect = higher value
row,Compound,inhibition
1,COc1ccc(OP(C)(=O)Nc2ccccc2Br)cc1 (stereo unspecified),inactive: 1.86%
2,CCN(CC)CCCOC(=O)C(O)(c1ccccc1)C1CCCCC1 (stereo unspecified),inactive: 3.36%
3,CP(=O)(Nc1ccccc1)Oc1ccc(F)cc1 (stereo unspecified),inactive: -3.28%
4,O=[N+]([O-])c1cc([N+](=O)[O-])c(OC2CCCCC2O)c([N+](=O)[O-])c1 (stereo unspecified),inactive: 3.21%
5,CCCCCOc1ccc(NP(C)(=O)Oc2ccc(Cl)cc2Cl)cc1 (stereo unspecified),inactive: -1.99%
6,CCOC(=O)c1ccc(NP(C)(=O)Oc2ccc(F)cc2)cc1 (stereo unspecified),inactive: 2.39%
7,COc1ccc(OP(C)(=O)Nc2ccc(SC(F)(F)F)cc2)cc1 (stereo unspecified),inactive: -0.67%
8,O=C(OC1CN2CCC1CC2)c1ccc([N+](=O)[O-])cc1 (stereo unspecified),inactive: 1.19%
9,O=C(OCCN1CCN(CCOCc2ccccc2)CC1)C(O)(c1ccccc1)c1ccccc1,inactive: -0.74%
10,CP(=O)(Nc1ccccc1F)Oc1ccccc1 (stereo unspecified),inactive: -2.5%
11,CC(C)c1ccc(OP(C)(=O)Nc2ccc(SC(F)(F)F)cc2)cc1 (stereo unspecified),inactive: -3.34%
12,CP(=O)(Nc1ccc2c(c1)OCCO2)Oc1ccccc1 (stereo unspecified),inactive: 3.59%
13,Cc1ccccc1NP(C)(=O)Nc1ccccc1C,inactive: -0.19%
14,CP(=O)(Nc1ccc(SC(F)(F)F)cc1)Oc1ccc(F)cc1 (stereo unspecified),inactive: 4.53%
15,CCOP(C)(=S)SCC(=O)NC(C)(CC)C(=O)O (stereo unspecified),inactive: 1.06%
16,O=[N+]([O-])c1ccc(OP2(=O)COCCO2)cc1 (stereo unspecified),inactive: -1.15%
17,Cc1cc(-c2cccc3ccccc23)c(C)cn1.O=[N+]([O-])c1cc([N+](=O)[O-])c(O)c([N+](=O)[O-])c1,inactive: 0.45%
18,O=[N+]([O-])c1cc([N+](=O)[O-])c(NCC2CCS(=O)(=O)C2)c([N+](=O)[O-])c1 (stereo unspecified),inactive: 0.98%
19,COc1ccc(OP(C)(=O)Nc2cccc(Br)c2)cc1 (stereo unspecified),inactive: -1.77%
20,CN(C)CCOC(=O)C(O)(c1ccccc1)C1CCCCC1 (stereo unspecified),inactive: 3.94%
21,COc1ccc(NP(C)(=O)Oc2ccccc2OC)cc1 (stereo unspecified),inactive: 4.02%
